Results: PubChem BioAssay AID1952 (The Scripps Research Institute Molecular Screening Center, 2009)
Only a part is listed here, and it is no random draw. The source made the active and inactive calls. No stated cut-off is given here; in the data, active means inhibition above about 24%; inactive means the rest.

Sequences of proteins named here, by UniProt entry; tags and fusion partners are left off.
UniProt P48145, whole entry: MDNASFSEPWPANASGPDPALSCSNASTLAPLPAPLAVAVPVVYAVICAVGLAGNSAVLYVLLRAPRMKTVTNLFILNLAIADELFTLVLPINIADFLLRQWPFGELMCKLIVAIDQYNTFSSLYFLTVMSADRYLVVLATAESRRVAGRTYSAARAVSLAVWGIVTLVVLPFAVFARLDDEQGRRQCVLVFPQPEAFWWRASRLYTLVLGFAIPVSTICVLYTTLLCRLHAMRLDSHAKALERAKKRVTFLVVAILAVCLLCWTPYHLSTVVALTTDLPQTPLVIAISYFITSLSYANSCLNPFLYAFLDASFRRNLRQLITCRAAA

These molecules were tested against Neuropeptides B/W receptor type 1 (Homo sapiens) (UniProt P48145) (assay: GPR7 receptor antagonists, confirmation, cell-based, fluorescence, single concentration (AID 1952;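 further: stimulated with the GPR7 agonist NPW; 0% = agonist plus vehicle and 100% = vehicle alone without agonist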)). Details: GPR7-expressing cells, calcium fluorescence antagonist mode; at 4.4 µM; hits give high values.

Compound	inhibition
CCCOc1ccc(NP(C)(=O)Oc2ccc(Cl)cc2)cc1 (configuration not stated)	inactive: 0.3%
O=C(O)c1cccc(Nc2c([N+](=O)[O-])cc([N+](=O)[O-])cc2[N+](=O)[O-])c1	inactive: -7.77%
